{"source": "patent US6593340B1", "about": "“Pharmaceutical compositions containing N-propargylphentermine and related analogs to treat neurodegeneration and/or depression” (CV Technologies, Inc., priority 2000, dated 2003)", "tested_on": "rat brain and liver monoamine oxidase-A", "assay": "Monoamine oxidase-A-inhibiting activity ex vivo", "assay_type": "in vivo", "settings": "7 days following injection, i.p., 10 mg/kg combined with DSP4 50 mg/kg", "data": [{"substance": "(−)-deprenyl [reference compound]", "values": [{"measurement": "% Inhibition Monoamine Oxidase-A", "setting": "brain", "value": "−14.2 ± 9.3", "unit": "%"}, {"measurement": "% Inhibition Monoamine Oxidase-A", "setting": "liver", "value": "9.1 ± 6.0", "unit": "%"}]}]}
